The list shows a part of the results, in another mix than the full data. Some salts or complexes appear as unconnected parts, following the source record. The source made the active and inactive calls. No stated cut-off is given here; in the data, active means maximum fold increase above about 1.5; inconclusive means no clear call, values can overlap the other calls; inactive means below that; tested in PC3 cells.

The nature of this assay: compounds boosting herpes simplex virus growth – fold increase, host cell viability (AID 1956). The settings on record: HSV replication augmentation in cells; at 3.125 µM.
On to `O=C(O)c1ccccc1[As](=O)(O)O`, for which the maximum fold increase result was “inactive”.

Consider `CC(=O)Nc1ccc([As](=O)(O)O)cc1`, for which the maximum fold increase result was “inactive”.

Take `Cc1cc(C)cc(OP(C)(=O)Nc2cccc(C(F)(F)F)c2)c1` (centres undefined): the maximum fold increase result is “inactive”.

As for `O=P(Nc1nc2ccc(Cl)cc2s1)(c1ccccc1)c1ccccc1`, the maximum fold increase entry is “inactive”.

Take `CN(C(=O)Cc1ccc(Cl)c(Cl)c1)[C@H]1CCCC[C@@H]1N1CCCC1`: the maximum fold increase result was “inactive”.

Consider `Cc1ccc(NP(=O)(Oc2ccccc2F)Oc2ccccc2F)nc1`, for which the maximum fold increase entry was “inactive”.

`COc1ccccc1OP(C)(=O)Nc1ccc(C)c(C)c1` (centres undefined): the maximum fold increase result was “inactive”.

With `CCOP(=O)(Nc1ccccc1)OCC`, the maximum fold increase result is “inactive”.

For `Cc1cc(SC(NC(=O)c2ccc(F)cc2)C(Cl)(Cl)Cl)ncn1` (centres undefined), the maximum fold increase result was “inactive”.

As for `COc1ccc(OP(C)(=O)Nc2ccccc2Br)cc1` (centres undefined), the maximum fold increase entry is “inactive”.

Take `CC(=O)NC(SC(=S)N(CC(C)C)CC(C)C)C(Cl)(Cl)Cl` (centres undefined): the maximum fold increase result was “inactive”.

Consider `Cc1ccc(OP(=O)(Nc2ccccn2)Oc2ccc(C)cc2)cc1`, for which the maximum fold increase entry is “inactive”.

As for `COC(=O)c1cc2c(s1)N=C(c1ccccc1)N(C)P2(=O)N1CCOCC1` (centres undefined), the maximum fold increase entry is “inactive”.

`CCC(=O)N1C2C3N(C(=O)CC)C1C1N(C(=O)CC)C(C(N1C(=O)CC)N3C(=O)CC)N2C(=O)CC`: the maximum fold increase result is “inactive”.

Turning to `CCN(CC)CCCOC(=O)C(O)(c1ccccc1)C1CCCCC1` (centres undefined), the maximum fold increase entry is “inactive”.

On to `CP(=O)(Nc1ccccc1)Oc1ccc(F)cc1` (centres undefined), for which the maximum fold increase result was “inactive”.

`CN(C)C(=O)Oc1noc2ccccc12`: the maximum fold increase entry was “inactive”.

Turning to `O=c1c2cc([N+](=O)[O-])ccc2[nH]c2c([N+](=O)[O-])cc([N+](=O)[O-])cc12`, the maximum fold increase result was “inactive”.

Regarding `CCCCCOc1ccc(NP(C)(=O)Oc2ccc(Cl)cc2Cl)cc1` (centres undefined), the maximum fold increase entry was “inactive”.

For `Cc1ccccc1OP(=O)(Nc1ccccn1)Oc1ccccc1C`, the maximum fold increase entry was “inactive”.

Consider `O=C(NC1CCS(=O)(=O)C1)NP(=S)(Oc1ccccc1)Oc1ccccc1` (centres undefined), for which the maximum fold increase result was “inactive”.

Turning to `CCNC(=S)/N=C(\N)N[N+](=O)[O-]`, the maximum fold increase result was “inactive”.

Take `Cc1ccc(NP(=O)(Oc2cccc(C)c2)Oc2cccc(C)c2)nc1`: the maximum fold increase entry was “inactive”.

For the molecule `CCOC(=O)NC(Sc1ccccc1)C(Cl)(Cl)Cl` (centres undefined), the maximum fold increase entry is “inactive”.

In the case of `c1ccc(-c2nn[nH]n2)c(-c2nn[nH]n2)c1`, the maximum fold increase result was “inactive”.

`CCOC(=O)c1ccc(NP(C)(=O)Oc2ccc(F)cc2)cc1` (centres undefined): the maximum fold increase entry was “inactive”.

For the molecule `COc1ccc(OP(C)(=O)Nc2ccc(SC(F)(F)F)cc2)cc1` (centres undefined), the maximum fold increase entry was “inactive”.

Consider `O=C(OC1CN2CCC1CC2)c1ccc([N+](=O)[O-])cc1` (centres undefined), for which the maximum fold increase entry is “inactive”.

`C[C@@H]1C=CCP(=O)(Oc2ccccc2)O1` (some centres undefined): the maximum fold increase result is “inactive”.

With `C[C@H]1OP(=O)(Oc2ccccc2)C[C@@H]2O[C@@H]21` (some centres undefined), the maximum fold increase entry is “inactive”.

In the case of `CC(=O)Nc1ccc(Oc2c([N+](=O)[O-])cc([N+](=O)[O-])cc2[N+](=O)[O-])cc1`, the maximum fold increase entry is “inactive”.

With `COc1ccc2c(c1O)-c1c(O)c(OC)cc3c1[C@H](C2)[N+](C)(C)CC3.O=[N+]([O-])c1cc([N+](=O)[O-])c([O-])c([N+](=O)[O-])c1[O-]`, the maximum fold increase entry was “inactive”.

For the molecule `CC(=O)Nc1ccc([As](=O)(O)O)c(O)c1`, the maximum fold increase result was “inactive”.

In the case of `CCOc1ccc(C2=NCC(CBr)S2)cc1` (centres undefined), the maximum fold increase entry is “inactive”.

On to `O=P1(Nc2nc3ccc(Cl)cc3s2)COc2ccccc2O1` (centres undefined), for which the maximum fold increase result was “inactive”.

`CP(=O)(Nc1ccccc1F)Oc1ccccc1` (centres undefined): the maximum fold increase entry is “inactive”.

On to `CC(C)c1ccc(OP(C)(=O)Nc2ccc(SC(F)(F)F)cc2)cc1` (centres undefined), for which the maximum fold increase result is “inactive”.

With `CC(C)(C)C(=O)NC(Sc1ccccc1)C(Cl)(Cl)Cl` (centres undefined), the maximum fold increase entry is “inactive”.

On to `CP(=O)(Nc1ccc2c(c1)OCCO2)Oc1ccccc1` (centres undefined), for which the maximum fold increase result was “inactive”.

For the molecule `Cc1ccccc1NP(C)(=O)Nc1ccccc1C`, the maximum fold increase result is “inactive”.

In the case of `CP(=O)(Nc1ccc(SC(F)(F)F)cc1)Oc1ccc(F)cc1` (centres undefined), the maximum fold increase result was “inactive”.

As to `O=P(Nc1nccs1)(c1ccccc1)c1ccccc1`, the maximum fold increase entry was “inactive”.

As for `CC(C)C(=O)NC(Sc1ccccc1)C(Cl)(Cl)Cl` (centres undefined), the maximum fold increase entry was “inactive”.

On to `CCOP(C)(=S)SCC(=O)NC(C)(CC)C(=O)O` (centres undefined), for which the maximum fold increase entry was “inactive”.

In the case of `c1nnnn1CCn1cnnn1`, the maximum fold increase result is “inactive”.

Consider `CC(=O)NC(SC(=S)N(C)C)C(Cl)(Cl)Cl` (centres undefined), for which the maximum fold increase entry was “inactive”.

Take `O=[N+]([O-])c1ccc(OP2(=O)COCCO2)cc1` (centres undefined): the maximum fold increase result was “inactive”.

Turning to `O=[N+]([O-])c1ncn(CCn2cnc([N+](=O)[O-])n2)n1`, the maximum fold increase entry is “inactive”.

Take `Cc1cc(-c2cccc3ccccc23)c(C)cn1.O=[N+]([O-])c1cc([N+](=O)[O-])c(O)c([N+](=O)[O-])c1`: the maximum fold increase result was “inactive”.

In the case of `O=[N+]([O-])c1cc([N+](=O)[O-])c(NCC2CCS(=O)(=O)C2)c([N+](=O)[O-])c1` (centres undefined), the maximum fold increase result was “inactive”.

As to `O=[As](O)(c1ccccc1)c1ccc(O)cc1`, the maximum fold increase entry is “inactive”.

With `Nc1ccc([As](=O)(O)c2ccc([N+](=O)[O-])cc2)cc1`, the maximum fold increase result is “inactive”.

Consider `O=C(OC1CN2CCC1CC2)c1cccc(Cl)c1` (centres undefined), for which the maximum fold increase result was “inactive”.

Turning to `COc1ccc(OP(C)(=O)Nc2cccc(Br)c2)cc1` (centres undefined), the maximum fold increase result was “inactive”.

`O=P(Nc1ccccn1)(c1ccc(Br)cc1)c1ccc(Br)cc1`: the maximum fold increase result was “inactive”.

In the case of `C[C@H]1OP(=O)(Oc2ccccc2)[C@H](O)[C@H](O)[C@H]1N=[N+]=[N-]` (some centres undefined), the maximum fold increase entry is “inactive”.

`O=P(Nc1nc2ccccc2s1)(c1ccccc1)c1ccccc1`: the maximum fold increase entry was “inactive”.

Consider `CN(C)CCOC(=O)C(O)(c1ccccc1)C1CCCCC1` (centres undefined), for which the maximum fold increase result is “inactive”.

As for `COc1ccc(NP(C)(=O)Oc2ccccc2OC)cc1` (centres undefined), the maximum fold increase entry was “inactive”.
